Consider 1 substance from patent publication US10646600B2, “HER2 polypeptides useful for imaging and monitoring tumors and cancers” (GE HEALTHCARE LIMITED, priority 2013, dated 2020).

“Also recorded” adds a separate entry of the source.

The subject of test [1] is SKOV-3 cells. In words: In vitro uptake assay in SKOV-3 cells (blocking, siRNA, drug treatment, specific activity). Type of test: cell-based, human. As to the method: For siRNA-mediated HER2 knockdown, SKOV-3 cells were transfected with 25 nM scramble control (SCR; Dharmacon, Lafayette, Colo., ON-TARGETplus Non-targeting Pool, Cat. Nr: D-001810-10-05) or HER2-targeting siRNA (Invitrogen ERBB2 Silencer® Select Validated siRNA; Cat. Nr: 4457298) by reverse wet transfection with Lipofectamine RNAiMAX (Invitrogen) according to manufacturer's instructions. 3×10^5 cells were seeded in 12-well plates 48 h prior to uptake experiment. Target knockdown was verified by western blotting on cells that were transfected in parallel.
For all uptake studies in response to drug treatment, 2.5×10^5 SKOV-3 cells were seeded in complete medium 48 h prior to uptake experiments. Cells were incubated with indicated doses of NVP-AUY922 (LC Laboratories, Woburn, Mass.) for 24 h and 10 μg/mL trastuzumab (Roche, Basel, Switzerland) for 1 or 24 h prior to addition of radiotracer. […]
Cells were washed with PBS, trypsinized, neutralized with complete medium and centrifuged. […] The radioactivity of 100 μL lysate was counted on a Packard Cobra II gamma counter (Perkin Elmer). Radioactivity was normalized to applied radioactivity and protein content, which was determined for each sample by BCA assay (Pierce, Rockford, Ill.).

Test [2] relates to SKOV-3 xenografts. In words: PET-CT imaging and kinetic modeling, SKOV-3 xenografts. The format is in vivo, mice. As to the method:
[…] To assess interaction of radiotracer with trastuzumab, SKOV-3 xenograft-bearing mice were treated with 50 mg/kg trastuzumab intraperitoneally (i.p.) 2 h prior to the scan. Animals were recovered, treated twice more with 25 mg/kg trastuzumab i.p. and re-scanned 7 days after initial dose. To investigate response to HSP90 inhibition, SKOV-3 xenograft-bearing mice were treated with 50 mg/kg NVP-AUY922 or equivalent volume of vehicle (˜5 μL/g body weight; 10% DMSO and 5% Tween-20 in PBS) q.d. i.p. for three days. 24 h after the last treatment, animals were used for PET imaging.
Mice were anesthetized through isoflurane inhalation and scanned on a dedicated small animal PET-CT scanner (Siemens Multimodality Inveon, Erlangen, Germany). Low dose CT scans were first acquired (80 kVp, 0.5 mA, 220 degree rotation, 600 ms per degree exposure time, 80 μm reconstruction pixel size) for PET attenuation correction and to obtain an anatomical reference. PET images were acquired following a bolus i.v. injection of approximately 3.7 MBq [^18F]GE-226 in the tail vein. […] The count densities were averaged for all ROIs at each time point to obtain time versus radioactivity curves (TAC). Tumor TACs were normalized to injected dose measured by a VDC-304 dose calibrator (Veenstra Instruments, Joure, Netherlands) and normalized uptake was expressed as percentage injected dose per mL tissue (NUV; % ID/mL). […]

Regarding “trastuzumab: HER2-targeted antibody (Herceptin, Genentech)”, the “reduction of tracer binding compared to drug-naïve controls” value in test [1] (10 μg/mL trastuzumab for 24 h prior to uptake experiment) turned out to be 32±11%. For the same substance, in test [1] (10 μg/mL trastuzumab pre-treatment for 1 h), the “effect on tracer binding” value is listed as “did not alter tracer binding”. The “reduction of Ki” value in test [2] (7 days of continuous trastuzumab treatment) came to 24%. Moreover, the “effect on tumor tracer uptake/retention” value in test [2] (trastuzumab 50 mg/kg i.p. 2 h prior to scan, then two doses of 25 mg/kg, re-imaged after 7 days) was “not influenced; also recorded: did not adversely affect tumor tracer retention”.
